This series has as its system Paddy rice (variety: Nipponbare). As to the kind of experiment: Test Example 5: pot test, growth inhibition of the paddy rice. The series is classed as in vivo. The settings on record: 20 days after sowing, dosage a.i. g per 1 kg of seeds: Sulcotrione 1.0, Imazosulfuron 1.0, Oxadiargyl 0.15.

In the case of oxadiargyl, the “Growth inhibition rate, Paddy rice” value (Sowing into soil (depth 1 cm)) was 9 (Growth inhibition rate of 82 to 90%) and the “Growth inhibition rate, Paddy rice” value (Surface sowing) is on record as 7 (Growth inhibition rate of 64 to 72%).
